Measurements as given in publication PMC3627225 (Journal of medicinal chemistry, 2013).

Key:
[1] = tested on: HCV genotype 1b subgenomic replicon (Huh 5-2)
[2] = target: recombinant HCV NS5BCΔ21 (genotype 1b) (Hepatitis C virus genotype 1b, UniProt O92972); conditions: logP by QikProp

CN1c2c(C(=O)Nc3ccc(NS(C)(=O)=O)cc3)nn(-c3ccc(F)cc3)c2-c2ccccc2S1(=O)=O [4c, 1-(4-Fluorophenyl)-4-methyl-N-{4-[(methylsulfonyl)amino]phenyl}-1,4-dihydropyrazolo[4,3-c][1,2]benzothiazine-3-carboxamide 5,5-dioxide]
SI (ratio of CC50 to EC50) [1]: >10
LLE (IC50) = pIC50 – predicted logP [2]: 3.11
